This passage reports IC50 results from patent US20260224548A1 (priority 2022, published 2026).

The chains behind the UniProt entries cited, without tags or fusion partners.
UniProt P34913, whole entry: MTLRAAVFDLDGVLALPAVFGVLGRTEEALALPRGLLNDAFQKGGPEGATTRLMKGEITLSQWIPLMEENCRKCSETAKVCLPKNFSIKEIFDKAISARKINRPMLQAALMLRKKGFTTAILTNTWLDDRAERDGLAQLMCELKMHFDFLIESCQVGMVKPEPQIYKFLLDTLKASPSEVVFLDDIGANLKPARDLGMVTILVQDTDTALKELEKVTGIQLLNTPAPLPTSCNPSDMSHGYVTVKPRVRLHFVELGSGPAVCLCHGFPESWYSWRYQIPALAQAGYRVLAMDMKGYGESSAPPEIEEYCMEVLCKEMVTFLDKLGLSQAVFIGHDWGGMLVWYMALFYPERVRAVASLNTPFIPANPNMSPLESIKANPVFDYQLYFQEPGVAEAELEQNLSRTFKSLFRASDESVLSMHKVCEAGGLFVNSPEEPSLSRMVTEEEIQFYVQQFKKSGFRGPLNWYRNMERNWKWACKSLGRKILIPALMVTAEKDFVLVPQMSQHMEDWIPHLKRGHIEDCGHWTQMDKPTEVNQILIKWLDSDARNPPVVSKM

The assay addresses HsEH (Homo sapiens, UniProt P34913). In kind it is biochemical. To be noted: PHOME substrate 50 μM, sEH 400 ng/ml, 37° C., 10 min, fluorescence 330/465 nm; read-out: HsEH IC50 (nM) Inhibitory activity against HsEH. The text has this:
Detection principle: a specific substrate, (3-phenyl-oxy)-acetic acid cyano-(6-methoxy-naphthalen-2-yl)methyl ester, namely PHOME, is non-fluorescent but can be hydrolyzed under the action of sEH enzyme to generate a product 6-methoxy-2-naphthaldehyde. The 6-methoxy-2-naphthaldehyde can emit fluorescence with a wavelength of 465 nm under 330 nm light wave excitation, and an intensity of the detected fluorescence signal is inversely proportional to an inhibitory effect on the sEH enzyme. Based on the above principle, the inhibition rates of samples with different concentrations were calculated compared with the positive control group. The IC50 value of the compound was calculated based on the inhibition rate and concentration using SPSS 20 software.
25 mM Tris-HCl buffer (pH=7.4, containing 0.1 mg/mL BSA): […] BAS was added to 12.5 mL of 1 M Tris-HCl buffer, followed by diluting with purified water, and a resulting mixture was adjusted to a pH value of 7.4 with hydrochloric acid, and diluted to 500 mL. […]
Three replicate wells were set for each sample, and the average value of the three replicate wells was the fluorescence value (F) of the compound to be tested. […] The IC50 value of the compound was calculated based on the inhibition rate and concentration using SPSS 20 software.

For `CCC(C)C(=O)N1CCC(CC(=O)N2CCCN(C(=O)c3ccc(NC(=O)NC45CC6CC(C)(CC(C)(C6)C4)C5)c(F)c3)CC2)CC1` [CC-103, 1-((1r,3R,5S,7r)-3,5-dimethyladamantan-1-yl)-3-(2-fluoro-4-(4-(2-(1-(2-methylbutyryl)piperidin-4-yl)acetyl)-1,4-diaza-1-carbonyl)phenyl) urea], the 50% inhibitory concentration (IC50) was 1 nM.
